{"sequences": {"note": "Amino acid sequences for entries named in this document (tags omitted). A change or cut given only in a name is not applied to a line headed by its entry.", "UniProt Q9Y2T6": "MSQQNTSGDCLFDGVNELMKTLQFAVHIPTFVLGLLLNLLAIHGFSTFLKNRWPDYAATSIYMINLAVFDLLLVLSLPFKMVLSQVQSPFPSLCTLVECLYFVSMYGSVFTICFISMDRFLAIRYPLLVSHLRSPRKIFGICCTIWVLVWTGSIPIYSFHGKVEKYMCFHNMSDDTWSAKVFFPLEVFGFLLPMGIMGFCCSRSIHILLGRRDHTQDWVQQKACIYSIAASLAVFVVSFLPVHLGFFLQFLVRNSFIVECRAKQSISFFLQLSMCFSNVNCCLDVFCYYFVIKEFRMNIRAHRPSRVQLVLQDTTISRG"}, "source": "paper PMC5522996", "about": "“Big conductance calcium‐activated potassium channel openers control spasticity without sedation” (British Journal of Pharmacology, 2017)", "molecular_target": "T1, hGPR55 (HEK293.GPR55) (Homo sapiens, UniProt Q9Y2T6)", "T1 construct": "expressed in transfected cells; host or cells: HEK293", "assay": "Ca2+ Ion Flux assay, HEK293.GPR55", "assay_type": "cell-based", "data": [{"substance": "AM251 [reference compound]", "values": [{"measurement": "Calcium fluxes in HEK293.GPR55", "value": "demonstrate calcium fluxes"}]}]}
